{"source": "paper PMC5021161", "about": "(Environmental and Molecular Mutagenesis, 2016)", "origin": "cited, not measured here", "system": "TK6 cells", "conditions": "1% BF/PB S9, ref Buick et al., 2015, cited from earlier work", "note": "Like-named read-outs stand apart in the source and are kept apart here.", "data": [{"smiles": "C[C@@H]1C[C@H]2[C@@H]3CCC4=CC(=O)C=C[C@]4(C)[C@@]3(F)[C@@H](O)C[C@]2(C)[C@@]1(O)C(=O)CO", "note": "[Dexamethasone]", "values": [{"measurement": "% Relative Survival", "setting": "0.63 mM", "result": 82.4, "unit": "%"}, {"measurement": "% Relative Survival", "setting": "1 mM", "result": 71.3, "unit": "%"}]}]}
